# How the values were obtained:
# By UniProt entry, the sequences of proteins in these tests, tags left out.
# UniProt P60842, whole entry: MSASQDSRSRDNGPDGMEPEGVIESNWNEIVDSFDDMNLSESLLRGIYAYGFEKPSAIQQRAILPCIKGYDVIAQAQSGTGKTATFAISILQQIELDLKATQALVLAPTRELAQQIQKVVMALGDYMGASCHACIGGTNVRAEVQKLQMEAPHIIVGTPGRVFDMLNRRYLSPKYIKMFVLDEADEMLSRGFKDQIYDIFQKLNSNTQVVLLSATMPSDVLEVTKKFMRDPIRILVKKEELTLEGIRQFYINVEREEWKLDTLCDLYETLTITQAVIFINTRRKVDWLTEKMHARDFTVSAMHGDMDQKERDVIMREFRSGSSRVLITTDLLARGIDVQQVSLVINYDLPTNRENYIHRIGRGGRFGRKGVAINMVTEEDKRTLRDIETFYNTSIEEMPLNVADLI
# Homo sapiens = organism: Homo sapiens; test: Selectivity index, ratio of IC50 for inhibition of eIF4A1 F163L mutant in human HAP1 cells assessed as reduction in cell proliferation incubated for 72 hrs by CellTiter-Glo reagent based assay to IC50 for inhibition of eIF4A1 in human HAP1 cells assessed as reduction in cell proliferation incubated for 72 hrs by CellTiter-Glo reagent based assay
# [1] = target: Eukaryotic initiation factor 4A-I (Homo sapiens, UniProt P60842); test: Ratio of half life for binding affinity to full length recombinant eIF4A1 (unknown origin) assessed as induction ternary complex formation in presence of AGAGAG by measuring half life for AGAGAG + AMP-PNP complex formation SPR assay to half life for binding affinity to full length recombinant eIF4A1 (unknown origin) assessed as induction ternary complex formation in presence of AGAGAG by measuring half life for AGAGAG + ATP complex formation SPR assay
smiles,measurement,setting,value
COc1cc2c(c(OC)n1)[C@]1(O)[C@H](O)[C@H](CN(C)C)[C@@H](c3ccccc3)[C@]1(c1ccc(C#N)cc1)O2,Ratio IC50,Homo sapiens,60
same,Ratio,[1],30
